Data published in paper PMC4945863, “Dual thio-digalactoside-binding modes of human galectins as the structural basis for the design of potent and selective inhibitors” (Scientific Reports, 2016).

Protein sequences, listed by entry. Tags and fused reporters are not part of them.
UniProt P09382, whole entry: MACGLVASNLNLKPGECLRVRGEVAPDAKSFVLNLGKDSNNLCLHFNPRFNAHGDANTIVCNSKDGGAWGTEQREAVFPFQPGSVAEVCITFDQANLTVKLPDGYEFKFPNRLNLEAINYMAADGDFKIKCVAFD
UniProt P47929, whole entry: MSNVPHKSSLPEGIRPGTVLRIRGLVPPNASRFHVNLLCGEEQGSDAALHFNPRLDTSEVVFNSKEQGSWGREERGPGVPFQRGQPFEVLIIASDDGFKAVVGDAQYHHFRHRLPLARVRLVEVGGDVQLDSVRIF

Tests used:
[1] = biological target: T1, galectin-1 (Homo sapiens, UniProt P09382); experiment: Isothermal titration calorimetry (ITC), galectin-1; assay type: binding; conditions: 298 K
T1 construct: full-length galectins-1 (residues 1-135); 6xHis; made in house; host or cells: Escherichia coli BL21 (DE3)
Procedure: (§1) Human galectins-1, -3CRD and -7 were produced in E. coli according to previous studies.
(§2) Samples for use in ITC were diluted to appropriate concentrations in dialysate buffer (25 mM Tris-HCl pH 8.0, 300 mM NaCl and 5 mM β-mercaptoethanol) saved from the ultrafiltration step. All samples were filtered with 0.22 μm cutoff filters (Millipore) and extensively degassed with stirring prior to use. […] To avoid heating effects due to differing concentration of DMSO in the injectant and protein solutions, 5% DMSO was added to the protein. Software provided by Microcal was used for the curve fitting of the experimental data as well as for calculation of the thermodynamic data. Specifically, all ITC data were corrected for the heat of dilution of the titrant by subtracting the excess heats at high molar ratios of ligands to galectins. Binding stoichiometry, enthalpy and equilibrium association constants were determined by fitting the corrected data to a bimolecular interaction model and summarised in Table 1.
(§3) Isothermal titration calorimetry (ITC). […]
(§4) Specifically, all ITC data were corrected for the heat of dilution of the titrant by subtracting the excess heats at high molar ratios of ligands to galectins. Binding stoichiometry, enthalpy and equilibrium association constants were determined by fitting the corrected data to a bimolecular

[2] = biological target: T2, galectin-7 (Homo sapiens, UniProt P47929); experiment: Isothermal titration calorimetry (ITC), galectin-7; assay type: binding; conditions: 298 K
T2 construct: (residues 1-136); 6xHis; made in house; host or cells: Escherichia coli BL21 (DE3)
Procedure: as §1, §2, §3, §4

Structure (SMILES): OC[C@H]1O[C@@H](S[C@@H]2O[C@H](CO)[C@H](O)[C@H](O)[C@H]2O)[C@H](O)[C@@H](O)[C@H]1O [TDG, thio-digalactoside]
- Kd [1]: 67.3 ± 8.6 µM
- ΔG [1]: -5.7 ± 0.08 kcal/mol
- Kd [2]: 573 ± 57.7 µM
